Data as given in US20260284049A1 (BRISTOL-MYERS SQUIBB COMPANY, priority 2023, published 2026).
“And” between values parts separate entries of the source, which are not always exact repeats. Equal values may be shown once.

Columns and labels:
[1] = test system: thrombin generation; experiment: AXIOMATIC-TKR: Thrombin Generation Assay (TGA): peak height, ETP, lag time; format: in vivo, human; conditions: 25 mg QD to 200 mg BID
[2] = test system: participants with ischemic stroke or TIA
[3] = test system: participants undergoing primary unilateral elective TKR surgery; conditions: in vivo

## C[C@@H]1CCC[C@H](n2cnc(-c3cc(Cl)ccc3-n3cc(Cl)nn3)cc2=O)c2cc(ccn2)-c2c(cnn2C(F)F)NC1=O [milvexian, (5R,9S)-9-(4-(5-chloro-2-(4-chloro-1H-1,2,3-triazol-1-yl)phenyl)-6-oxopyrimidin-1(6H)-yl)-2^1-(difluoromethyl)-5-methyl-2^1H-3-aza-1(4,2)-pyridina-2(5,4)-pyrazolacyclonaphan-4-one]
[1]
  TGA lag time: dose related prolongation
[2]; 25 mg QD, up to Day 21
  Ischemic Stroke Incidence Rate (n/N %): 4.6%
  Subjects With Ischemic Stroke n: 15
  Symptomatic Stroke Events: Incidence Rate (n/N %): 4.6%
  Symptomatic Stroke Events: Subjects With Event n: 15
[2]; 25 mg QD, up to Day 90
  Ischemic Stroke n: 15
[2]; human, in vivo
  primary endpoint (new ischemic stroke and new covert brain infarction on MRI at Day 90): numerically lower
[3]
  Total VTE, %: 13.6% and 12.2%
  Total VTE, participants n: 108
  VTE reduction compared with enoxaparin: superior to enoxaparin
  efficacy compared with enoxaparin: comparable efficacy to enoxaparin
  total VTE compared to enoxaparin: statistically significant reductions
